## Binding of CDR-mutated scFvs to a peptide of the spike HR2 region

Binding partner: SARS-CoV-2 spike HR2 peptide, sequence PDVDLGDISGINAS.

Parent: Ab-14, a human scFv built as VH, a (GGGGS)3 linker, VL. Only the CDRs of the light chain vary.
VH: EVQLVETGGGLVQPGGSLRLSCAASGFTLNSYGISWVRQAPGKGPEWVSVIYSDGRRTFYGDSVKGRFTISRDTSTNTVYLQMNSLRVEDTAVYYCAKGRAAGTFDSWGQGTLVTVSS
VL: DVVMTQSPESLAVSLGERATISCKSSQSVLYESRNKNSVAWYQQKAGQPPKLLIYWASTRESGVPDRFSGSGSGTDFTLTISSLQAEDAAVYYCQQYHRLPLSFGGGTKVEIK

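Designed CDR sequences, proposed from the first random library and measured here. Their group label is 14L_GP_Gen (GP: Gaussian process model; Gen: genetic algorithm; a sequence that several methods proposed may carry one label only). The scFvs were displayed on barcoded MATa yeast, the peptide on MATalpha yeast. Mating (16 h, 30 °C) was followed by selection of diploids and sequencing of their barcodes. Each replicate has its own calibration line, from reference interactions of the BCL2 family. There are six technical replicates.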

Positions count from residue 1 of the parent VL; S25L puts L in place of S.
Values are log10 of the apparent Kd in nM; lower means stronger binding.
Replicates are averaged; those with no signal do not enter the mean.
The parent sequence was in this pool as ten entries: three were never detected, three once, and four in most replicates, with averages from 0.34 to 2.37.

changes,"replicates, log10 nM","log10 Kd (nM), mean",signal with controls
S25L V29D K36S W56N,-0.12 -0.10 -0.61 -0.14 0.08 -0.07,-0.16,1 of 18 (1.82)
S25L W56E E61F,0.55 0.32 0.23 0.15 0.26 0.24,0.29,2 of 18 (3.58)
S25L S26Q V29F W56D E61C,-0.36 -0.43 -0.53 -0.72 -0.53 -0.52,-0.51,1 of 18 (2.90)
S25L S26R V29W W56N,0.43 0.37 0.43 0.14 0.43 0.39,0.36,3 of 18 (3.03)
S25I V29Y W56N E61C,-0.22 -0.57 -0.81 -0.59 -0.60 -0.10,-0.48,1 of 18 (2.29)
S25L S26P V29Y W56N,-0.15 -0.29 -0.40 -0.42 -0.28 -0.25,-0.30,3 of 18 (2.97)
S25V S38N W56N T59Q,-0.29 -0.41 -0.35 -0.32 -0.31 -0.29,-0.33,1 of 18 (1.71)
S25V S26Q V29D W56D,-0.12 0.13 0.18 -0.02 -0.12 -0.20,-0.02,0 of 18
S25V W56E S62E,-0.12 -0.09 -0.32 -0.30 -0.41 -0.36,-0.27,1 of 18 (2.20)
S25L V29E W56E S62L,-0.03 -0.20 -0.60 -0.12 -0.25 -0.21,-0.24,0 of 18
S25L V29D W56Q Q96D,0.07 0.04 0.04 -0.16 -0.14 0.24,0.01,3 of 18 (2.09)
S25F L30P W56N T59Q,0.67 0.68 0.45 0.30 0.55 0.79,0.58,0 of 18
S25V S33Q W56N T59Q,-0.09 0.02 -0.31 -0.35 -0.34 -0.02,-0.18,1 of 18 (1.90)
S25L V29E W56G T59Q,0.09 0.17 0.06 -0.07 0.15 0.18,0.10,0 of 18
S25L S26Q S38N W56S,-0.19 -0.71 -0.38 -0.59 -0.54 -0.52,-0.49,0 of 18
S25F S26E V29Y W56N T59Q,0.08 0.01 -0.26 -0.14 0.08 0.05,-0.03,1 of 18 (3.18)
S25F S26P W56E,-0.41 -0.08 -0.66 -0.71 -0.63 -0.59,-0.52,0 of 18
S25L Q27G V29H W56D,-0.33 -0.32 -0.41 -0.39 -0.29 -0.28,-0.34,1 of 18 (2.90)
S25L S26Q V29W W56N E61Y,0.28 0.10 0.03 0.05 0.13 0.19,0.13,3 of 18 (2.43)
S25V S26E W56N T59Q,0.16 0.43 -0.03 0.05 0.27 0.51,0.23,1 of 18 (2.85)
S25L S38N W56N S62D,-0.49 -0.56 -0.82 -0.73 -0.48 -0.81,-0.65,0 of 18
S25L V29Q W56N S62D,0.24 0.30 -0.20 -0.24 -0.12 0.09,0.01,0 of 18
S25L W56N S62L,0.04 -0.13 0.08 -0.05 0.02 -0.07,-0.02,1 of 18 (2.24)
S25L S26Q W56Q Q96D,0.64 -0.13 0.11 -0.04 -0.07 0.67,0.20,0 of 18
S25L S28L V29E W56N E61L,-0.10 0.08 -0.27 -0.17 0.08 -0.01,-0.06,1 of 18 (2.11)
S25L S26Q W56N T59Q S62V,0.50 0.38 0.18 0.52 -0.01 0.54,0.35,2 of 18 (3.30)
S25L V29D W56N S62V,-0.06 -0.31 -0.27 -0.38 -0.34 -0.11,-0.25,0 of 18
S25L V29Q W56N E61M,-0.16 -0.28 -0.26 -0.47 -0.29 -0.27,-0.29,0 of 18
S25L S26E Q27G V29M W56N,-0.12 -0.37 -0.41 -0.54 -0.34 -0.21,-0.33,1 of 18 (2.62)
S25V S26Q V29E W56D,-0.09 -0.28 -0.52 -0.55 -0.44 -0.17,-0.34,1 of 18 (2.04)
S25L L30E W56H E61L,0.77 0.44 0.72 0.21 0.76 0.60,0.58,3 of 18 (3.52)
S25L N35M W56N T59Q E61M,-0.08 -0.16 -0.35 -0.31 -0.31 0.00,-0.20,4 of 18 (2.95)
S25L S26P W56Q E61M,0.02 -0.02 -0.10 -0.19 0.00 0.01,-0.05,0 of 18
S25L V29M W56N E61M S62Q,-0.42 -0.36 -0.41 -0.49 -0.29 -0.11,-0.35,4 of 18 (2.53)
S25V S28L V29W W56N,0.25 0.09 0.05 -0.12 -0.19 0.19,0.04,1 of 18 (2.24)
S25L V29S W56N E61L,0.21 -0.05 0.17 -0.12 0.08 0.30,0.10,1 of 18 (4.15)
S25F V29Q N35M W56N T59Q,0.23 0.07 -0.02 -0.28 0.03 0.07,0.01,0 of 18
S25L S26M V29M W56N T59Q,-0.33 -0.39 -0.81 -0.70 -0.60 -0.65,-0.58,0 of 18
S25L V29Q N35A W56N T59Q,0.03 0.01 0.08 -0.08 -0.05 0.39,0.06,2 of 18 (2.28)
S25L S26M V29T W56N,0.02 0.00 -0.04 -0.10 -0.16 -0.04,-0.05,2 of 18 (2.59)
K24H S25L V29Y W56N,0.09 -0.08 0.02 -0.03 -0.02 0.05,0.01,2 of 18 (2.64)
S25L S38A W56N S62Q,-0.02 -0.23 -0.02 -0.13 -0.02 -0.05,-0.08,1 of 18 (3.33)
S25L S26Q V29E N35M W56N E61L,0.48 0.28 0.21 0.07 -0.02 0.18,0.20,1 of 18 (1.96)
S25V V29M W56D Q96S,-0.21 -0.14 -0.21 -0.25 -0.40 -0.30,-0.25,0 of 18
S25F S26E V29F W56N T59Q,-0.18 -0.37 -0.39 -0.36 -0.39 -0.21,-0.31,0 of 18
S25L S26P W56N S62D,0.09 -0.08 -0.09 -0.08 -0.13 -0.04,-0.05,1 of 18 (3.05)
S25L W56N E61L S62V,0.15 -0.02 -0.07 -0.29 0.03 0.07,-0.02,4 of 18 (2.83)
S25L W56E S62A,0.03 -0.13 -0.18 -0.20 -0.27 -0.14,-0.15,1 of 18 (2.21)
S25L S26Q V29W W56N E61L Q96D,-0.20 -0.29 -0.54 -0.56 -0.38 -0.23,-0.37,1 of 18 (3.46)
S25I Y31M W56D,0.09 -0.15 -0.09 -0.08 -0.11 0.15,-0.03,0 of 18

The 5 strongest on average among those seen in every replicate, once more:

changes,"replicates, log10 nM","log10 Kd (nM), mean",signal with controls
S25L S38N W56N S62D,-0.49 -0.56 -0.82 -0.73 -0.48 -0.81,-0.65,0 of 18
S25L S26M V29M W56N T59Q,-0.33 -0.39 -0.81 -0.70 -0.60 -0.65,-0.58,0 of 18
S25F S26P W56E,-0.41 -0.08 -0.66 -0.71 -0.63 -0.59,-0.52,0 of 18
S25L S26Q V29F W56D E61C,-0.36 -0.43 -0.53 -0.72 -0.53 -0.52,-0.51,1 of 18 (2.90)
S25L S26Q S38N W56S,-0.19 -0.71 -0.38 -0.59 -0.54 -0.52,-0.49,0 of 18

Values of this round are not directly comparable with the first-round values of the same sequences.
Nonspecific signal, from three strains lacking the peptide, appeared in 4% of pairings of all light chain designs, centred on 2.64 (5% of these signals below 1.59); values are not corrected for it. Also given: how often the same scFv was detected with the empty control strains, with their mean in brackets.
The authors' rule: three or more of the six replicates give a measured affinity, fewer mean a poor binder.

Reference: Li et al. 2023, doi:10.1038/s41467-023-39022-2. File: FLAb, binding data.